The target of test [1] is T1, Dual specificity tyrosine-phosphorylation-regulated kinase 1A (Homo sapiens, UniProt Q13627).
The target in test [2] is T1, Dual specificity tyrosine-phosphorylation-regulated kinase 1A. The settings on record: sf9.

Usually IC50 stands for the point on the concentration scale where inhibition reaches its midpoint.

In the case of `COc1ccc2sc(-c3cncc(NC(C)=O)c3)nc2c1`, the IC50 is 50.8 nM in test [1] and 335 nM in test [2].

Source of the values: ChEMBL document CHEMBL5247649, “Comparative Efficacy and Selectivity of Pharmacological Inhibitors of DYRK and CLK Protein Kinases” (J Med Chem, 2023).
